Results on one compound are retold here after ChEMBL document CHEMBL3352205, “Indazole- and indole-5-carboxamides: selective and reversible monoamine oxidase B inhibitors with subnanomolar potency” (J Med Chem, 2014).

This assay is filed under the species Homo sapiens. The assay can be described thus: Selectivity index, ratio of IC50 for human recombinant MAO-A to IC50 for human recombinant MAO-B.

Consider `O=C(Nc1ccc(Cl)c(Cl)c1)c1ccc2[nH]ccc2c1`, for which the Ratio IC50 is 5730.
